A short description of this data set: Toxic deaths in leukemia-bearing mice. It counts as in vivo. As to conditions: 100 mg/kg, intraperitoneally on day 1; macroscopic autopsy findings. The protocol: The new glycosides were tested against HeLa cells in vitro (time of exposure to the drugs: 24 hours), and on L 1210 and P 388 leukemia in mice in comparison with daunomycin.
^(a) Mice were treated intraperitoneally on day 1 after tumor cell
^(b) Evaluated on the basis of the macroscopic autopsy findings.

On to `COc1cccc2c1C(=O)c1c(cc3c(c1O)[C@@H](O[C@H]1C[C@H](N)[C@H](O)[C@H](C)O1)C[C@](O)(C(=O)CO)C3)C2=O` [Glycoside A, 11-deoxyadriamycin], for which the Toxic deaths is 1/10.

(Values after patent US4411834A, “Preparation of II-deoxy anthracycline antibiotics” (Farmitalia Carlo Erba, S.p.A., priority 1978, dated 1983).)
